{
  "source": "PubChem BioAssay AID1454",
  "about": "(National Center for Advancing Translational Sciences (NCATS), 2008)",
  "note": "The list shows a part of the results, in another mix than the full data. Results filed as inconclusive are left out. Calls of active or inactive are those of the source. The call rests on the fitted dose curve; in most records, active means well fitted inhibition curve with a large enough effect; inconclusive means small, poorly fitted or top-dose-only effect, or effect the other way; inactive means flat fitted curve, though single readings scatter.",
  "data": [
    {"experiment": "qHTS Assay for Inhibitors of the ERK Signaling Pathway using a Homogeneous Screening Assay; Stimulation with EGF;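 further: plate controls were stimulated vehicle wells for no effect and unstimulated vehicle basal for full effect; nearly all actives have a fitted effect of over 55% in size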", "details": "HEK293-V1b, EGF-stimulated phospho-ERK AlphaScreen; at 11.5 µM (top of the series)", "values": [
      {"smiles": "CN(CCCl)CCCl", "activity change, negative = inhibition": "inactive: 10%"}
    ]}
  ]
}
